Publication PMC4294129 (Drug Design, Development and Therapy, 2015)

Tested on: human platelets
Test: Collagen I-induced platelet aggregation in platelet rich plasma
Format: cell-based
Settings: 10 μM, 2 μg/mL collagen I, saline 85%±19%, mean ± SD, four donors

## COC(=O)[C@H](c1ccccc1Cl)N1CCc2sccc2C1 [clopidogrel]
  platelet aggregation, collagen-induced, in PRP: 38%±22%
